Source: patent US20220041721A1 (WUHAN YZY BIOPHARMA, published 2022)

Experiments:
[1] = molecular target: T1, human CD3 (human, UniProt P07766 23-207); experiment: cell-based or functional assay
[2] = molecular target: T2, Human CD38 (human, UniProt P28907 1-300); experiment: flow cytometry on CD38 positive tumor cells (MM.1S or RPMI 8226)
T2 construct: whole, on cells; the assays used the protein on tumor cells

[3] = molecular target: T1, human CD3; experiment: flow cytometry on human CD3 positive T cells
[4] = molecular target: T3, monkey CD3 (monkey); experiment: flow cytometry on monkey CD3 positive T cells
T3 construct: whole, on cells; also called CD3 on monkey CD3 positive T cells

B1: Y150-F8-9 (bispecific antibody, human IgG1, kappa)
scFv: QVQLVESGGGVVQPGRSLRLSCAASGFTFSTYAMNWVRQAPGKGLEWVARIRSKYNNYATYYADSVKDRFTISRDDSKNTLYLQMNSLRAEDTAVYYCARHGNFGNSYVSWFAYWGQGTLVTVSSGGGGSGGGGSGGGGSQTVVTQEPSLTVSPGGTVTLTCRSSTGAVTTSNYANWVQQKPGQAPRGLIGGTNKRAPGVPARFSGSLLGGKAALTLSGVQPEDEAEYYCALWYSNLWVFGGGTKVEIKGRGRGSDKTHTCPPSPAPPVAGPSVFLFPPKPKDTLMISRTPEVTCVVVDVSHEDPEVQFNWYVDGVEVHNAKTKPREEQFNSTFRVVSVLTVVHQDWLNGKEYKCKVSNKGLPAPIEKTISKTKGQPREPQVCTLPPSRDELTKNQVSLSCAVKGFYPSDIAVEWESNGQPENNYKTTPPVLDSDGSFFLVSKLTVDKSRWQQGNVFSCSVMHEALHNHYTQKSLSLSPGK
heavy: not shown
light: not shown
EC50 values of T-cell activation (CD3 and CD69 dual positive cells; human PBMC with MC/CAR target cells 5:1, 48 h) [1]: 0.96 pM
EC50 [2]: 51.9 nM

B2: Y150-F8-10 (bispecific antibody, human IgG1, kappa)
scFv: QVQLVESGGGVVQPGRSLRLSCAASGFTFSTYAMNWVRQAPGKGLEWVARIRSKYNNYATYYADSVKDRFTISRDDSKNTLYLQMNSLRAEDTAVYYCARHGNFGNSYVSWAAYWGQGTLVTVSSGGGGSGGGGSGGGGSQTVVTQEPSLTVSPGGTVTLTCRSSTGAVTTSNYANWFQQKPGQAPRGLIGGTNKRAPGVPARFSGSLLGGKAALTLSGVQPEDEAEYYCALWYSNLWVFGGGTKVEIKGRGRGSDKTHTCPPCPAPPVAGPSVFLFPPKPKDTLMISRTPEVTCVVVDVSHEAPEVQFNWYVDGVEVHNAKTKPREEQFNSTFRVVSVLTVVHQDWLNGKEYKCKVSNKGLPAPIEKTISKTKGQPREPQVCTLPPSRDELTKNQVSLSCAVKGFYPSDIAVEWESNGQPENNYKTTPPVLDSDGSFFLVSKLTVDKSRWQQGNVFSCSVMHEALHNHYTQKSLSLSPGK
heavy: not shown
light: not shown
EC50 [3]: 416 nM
EC50 values of T-cell activation (CD3 and CD69 dual positive cells; human PBMC with MC/CAR target cells 5:1, 48 h) [1]: 14.1 pM
EC50 [4]: 440 nM
EC50 [2]: 42.7 nM

B3: Y150-F8-12 (bispecific antibody, human IgG1, kappa)
scFv: QVQLVESGGGVVQPGRSLRLSCAASGFTFSTYAMNWVRQAPGKGLEWVARIRSKYNNYATYYADSVKDRFTISRDDSKNTLYLQMNSLRAEDTAVYYCARHGNFGNSYVSWFVYWGQGTLVTVSSGGGGSGGGGSGGGGSQTVVTQEPSLTVSPGGTVTLTCRSSTGAVTTSNYANWVQQKPGQAPRALIGGTNKRAPGVPARFSGSLLGGKAALTLSGVQPEDEAEYYCALWYSNLWVFGGGTKVEIKGRGRGSDKTHTCPPSPAPPVAGPSVFLFPPKPKDTLMISRTPEVTCVVVDVSHEDPEVQFNWYVDGVEVHNAKTKPREEQFNSTFRVVSVLTVVHQDWLNGKEYKCKVSNKGLPAPIEKTISKTKGQPREPQVCTLPPSRDELTKNQVSLSCAVKGFYPSDIAVEWESNGQPENNYKTTPPVLDSDGSFFLVSKLTVDKSRWQQGNVFSCSVMHEALHNHYTQKSLSLSPGK
heavy: not shown
light: not shown
EC50 [3]: 561 nM
EC50 values of T-cell activation (CD3 and CD69 dual positive cells; human PBMC with MC/CAR target cells 5:1, 48 h) [1]: ≥ 6530 pM
EC50 [4]: 607 nM
EC50 [2]: 47.9 nM

B4: Y150-F8-14 (bispecific antibody, human IgG1, kappa)
scFv: QVQLVESGGGVVQPGRSLRLSCAASGFTFSTYAMNWVRQAPGKGLEWVARIRSKYNNYATYYADSVKDRFTISRDDSKNTLYLQMNSLRAEDTAVYYCARHGNFGNSYVSWFLYWGQGTLVTVSSGGGGSGGGGSGGGGSQTVVTQEPSLTVSPGGTVTLTCRSSTGAVTTSNYANWVQQKPGQAPRALIGGTNKRAPGVPARFSGSLLGGKAALTLSGVQPEDEAEYYCALWYSNLWVFGGGTKVEIKGRGRGSDKTHTCPPSPAPPVAGPSVFLFPPKPKDTLMISRTPEVTCVVVDVSHEDPEVQFNWYVDGVEVHNAKTKPREEQFNSTFRVVSVLTVVHQDWLNGKEYKCKVSNKGLPAPIEKTISKTKGQPREPQVCTLPPSRDELTKNQVSLSCAVKGFYPSDIAVEWESNGQPENNYKTTPPVLDSDGSFFLVSKLTVDKSRWQQGNVFSCSVMHEALHNHYTQKSLSLSPGK
heavy: not shown
light: not shown
EC50 [3]: 565 nM
EC50 [4]: 598 nM
EC50 [2]: 49.9 nM
